Literature values as cited in patent US20080306098A1, “Pharmacokinetics of protease inhibitors and other drugs” (priority 2006, published 2008).

Details: in vivo; cited from earlier work

With insulin as the substance, how does the half-life read?
The half-life was 8 h.
